Experimental data reported in patent publication US9365534B2, “Arylated camphenes, processes for their preparation and uses thereof” (Yissum Research Development Company of the Hebrew …, priority 2009, dated 2016).

Tests used:
[1] = target: T1, human CB2 receptor (Homo sapiens (Human), UniProt P34972); format: cell-based; conditions: read-out: cAMP Assay CB2 Receptor IC50
Source text: (§1) The cDNA clones for human HA-tagged CB1 and CB2 receptors were obtained from the Missouri S&T cDNA Resource Center (www.cdna.org) in cloning vector pcDNA3.1+. The vector containing the human CB2 receptor was transfected directly into CHO-KI cells obtained from ATCC. The HA-tagged human CB1 receptor sequence was subcloned into the pef4-V5-HisA vector with Kpn1 and Pme1 restriction enzymes and subsequently transfected into CHO-K1 cells. Cells were clonally isolated by limited dilution and screened by immunocytochemistry for expression of the HA tag.
Cells were maintained in DMEM/F12 media supplemented with 10% fetal bovine serum (FBS), 100 units/ml penicillin and 100 μg/ml streptomycin and 2 mM L-glutamine. Transfected cell lines were maintained with additional 150 ug/ml zeocin for pEF HA-CB1 transfected cells and 500 ug/ml G-418 for pcDNA HA-CB2 transfected cells (all reagents obtained from Invitrogen).
Cells were seeded at a density of 10,000 cells per well in poly-L-lysine treated 96-well culture plates (BD Biosciences). […] Radioactive counts within the supernatant were then determined as described for competition binding assays.
pIC50 values were determined from cAMP assays by fitting a sigmoidal concentration response curve using Prism 4.02.

[2] = target: T1, human CB2 receptor; assay: Membrane competition binding assay with [3H]-CP 55,940, CHO-CB2 membranes
Source text: as §1, with “tag. […]” for “tag.”
Cells were grown to confluence and harvested in ice cold phosphate buffered saline with 5 mM EDTA. […] Protein concentration was determined using the Dc protein assay kit (BioRad, Hercules, Calif., USA). […]
Radioactivity was determined by incubation of filters with Irgasafe scintillation fluid (PerkinElmer) and scintillation counting in a Wallac Trilux using Microbeta Trilux software. Data was analysed using the Prism 4.02 programme (GraphPad Software, San Deigo, Calif., USA).
All data was analyzed using Prism 4.02. For binding data the Ki was determined from IC50 values derived from competition binding data fitted with one site competition non-linear regression analysis by Prism 4.02 using the Kd values reported above.

[3] = target: T1, human CB2 receptor; assay: Membrane [35S]GTPγS binding assay; format: biochemical; conditions: human CB2 CHO-K1 membranes, mean (95% confidence interval), n = 5
Method: Human CB2 expressing CHO-K1 membranes (5 μg per incubation mixture) were diluted in 50 mM Tris-HCl (pH 7.5) and 0.5 mM EDTA and added to HU compounds in a pre-mixed incubation cocktail. Final incubation concentrations were 55 mM Tris-HCl (pH 7.4), 1 mM EDTA, 100 mM NaCl, 5 mM MgCl2, 0.5% BSA, 50 μM GDP, 0.2 nM [^35S]GTPγS (PerkinElmer) with varied HU compound concentration and 5 μg membrane. Incubations were continued for 60 minutes at 30° C. in a shaking water bath. Assays were terminated by addition of 2 ml ice cold wash buffer (50 mM Tris-HCl, pH 7.5 and 5 mM MgCl2) and filtration through pre-soaked GF/C filters (Whatman), followed by two further washes. adioactivity was determined as described for competition binding assays.
Data was analyzed using the Prism 4.02 programme (GraphPad Software, San Deigo, Calif., USA). IC50 and EC50 values, as determined from sigmoidal curves, were generated from drug concentrations plotted in log scale. […] It is possible to display data as an average, plus or minus the standard error of the mean in log form, however, this is not easily interpreted or compared to other values. […] The Pearson value, an indication of linearity, was determined for Ki and IC50 or EC50 results obtained for CB2 receptors in binding, cAMP or GTPγS experiments, respectively.

CCCCCCC(C)(C)c1cc(OC)c([C@@H]2C=C(CO)[C@@H]3C[C@H]2C3(C)C)c(OC)c1 [HU-308, [(1R,2R,5R)-2-[2,6-dimethoxy-4-(2-methyloctan-2-yl)phenyl]-7,7-dimethyl-4-bicyclo[3.1.1]hept-3-enyl]methanol, reference compound]
IC50 [1]: 117 nM | Ki [2]: 14 nM | EC50 [3]: 18.3 nM
